Bioassay records: PubChem BioAssay, Broad Institute
PglD inh: inhibitors of Campylobacter jejuni PglD acetyltransferase; purified PglD enzyme, DTNB colorimetric CoA detection; inhibition, % at 12.5 µM; hit rate 0.098% among 360,000; AID 602405; in the data active = inhibition above about 16%, passing the limit was not always enough
UUG fidelity: yeast start codon fidelity modulation; activity score, % at 18.7 µM; actives 0.13% (n = 350,000); S. cerevisiae UUG-firefly luciferase reporter, luminescence/redox ratio; AID 602363;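 active means replicate mean at a twofold rise or more, about +100% in these data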;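 further: firefly luciferase made from a UUG start codon reports start codon fidelity; reporter light over untreated wells divided by growth signal over untreated wells; some hits fall short of that in this replicate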
E-selectin induc: E-selectin induction on HUVECs. P16581. HUVEC E-selectin immunofluorescence imaging; normalized: neutral wells 0, TNF-alpha wells 100. activation, % at 7.58 µM. hit rate 0.37% among 260,000. AID 686992;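 active = mean E-selectin-positive cell signal at least 10% of the positive control, reached in at least 60% of replicates, without over 20% cell loss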
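Read-out: % PE-positive cells | Test system: HUVEC | Doses: One compound dose added by pin transfer | Buffer or medium: EGM-2 over gelatin coat | Signal: Immunofluorescence imaging | Benchmarks: TNF-alpha, DMSO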
PGC1a acetyl inh: PGC1a acetylation modulation, inhibitor mode. U2OS PGC1a acetylation, AlphaScreen anti-acetyl-lysine; with virally co-expressed GCN5 acetyltransferase. inhibition, % at 15.6 µM. hit rate 0.17% among 350,000. AID 651687;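 active = every replicate shows inhibition of at least 40%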;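 note: 0% = neutral control wells and 100% = positive control wells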
esBAF inh: inhibitors of esBAF chromatin remodeling in mouse ES cells; reporter increase, % at 12.5 µM; Bmi1-luciferase knock-in reporter, 24 h; 100% = twice the neutral-well signal; hit rate 2% among 350,000; in the data active = activation above about 40%;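 note: 0% = median of the plate's neutral control wells and 100% = double that signal; a rise in the Bmi1 reporter signal indicates esBAF inhibition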
Statin myotox sup: suppressors of simvastatin-induced myotoxicity in C2C12 myotubes | ATP luminescence, 48 h; scaled: DMSO 0, geranylgeraniol control 100 | AID 602340 | hit rate 0.78% among 330,000 | rescue of ATP level, % at 7.49 µM;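 active = mean ATP rescue above about 67%, or every replicate alone reaching that limit, limit read from the data, passing the limit was not always enough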;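 note: myotubes were challenged with 10 µM simvastatin during compound exposure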
* hit, by the source's call; . = no result. Rows were chosen to be rich in hits. Some 2.8% of all compounds tested hit in one or more screens of this group.

nr | compound | PglD inh | UUG fidelity | E-selectin induc
1 | [O-][n+]1cccc2ncc3cscc3c21 | -1.2 | -12.8 | 431.3*
2 | c1cnc2c(c1)ncc1cscc12 | . | . | 0.1
3 | O=C(CSc1nc2ccccc2c(=O)n1CC1CCCO1)Nc1ccccc1Cl (stereo not drawn) | -4.3 | 13.6 | .
4 | CCCNC(=O)N1CC2(CN(Cc3ccc(OC)cc3)C2)c2c(n(C)c3cc(OC)ccc23)[C@H]1CO | . | . | -0.1
5 | O=C(CSCc1ccc(Cl)cc1)N/N=C/c1ccccc1 | -1.9 | -11.2 | .
6 | C[C@H]1CN([C@@H](C)CO)S(=O)(=O)c2ccc(C#CC3CCCC3)cc2O[C@H]1CN(C)C(=O)c1cccc(F)c1 | . | . | 1.2
7 | Cc1ccc(C2CC2C(=O)NNC(=S)Nc2cccc(C)c2)cc1 (stereo not drawn) | 3.7 | -21.9 | .
8 | Cc1ccc(C2CC2C(=O)NNC(=S)Nc2cccc(Cl)c2)cc1 (stereo not drawn) | 1.9 | -25.1 | .
9 | O=S(=O)(NCC[C@@H]1CC[C@H](NS(=O)(=O)c2cccc(F)c2)[C@H](CO)O1)c1cccc(F)c1 | . | . | 0.3
10 | Cc1ccc(SC2=C(Sc3ccc(C)cc3)C(=O)c3ccccc3C2=O)cc1 | -1.9 | -8.6 | 5.0

nr | PGC1a acetyl inh | esBAF inh | Statin myotox sup
1 | 5.2 | . | .
2 | . | . | .
3 | -7.1 | -4.5 | 79.2*
4 | -25.1 | . | .
5 | -10.5 | 0.3 | 114.4*
6 | -0.7 | . | 32.1
7 | . | 1.8 | 41.7
8 | 10.9 | 1.8 | 81.3*
9 | -6.8 | . | .
10 | 6.8 | 41.6* | 5.5

More records follow.
nr | compound | PglD inh | UUG fidelity | E-selectin induc
11 | Cc1ccc(N2C(=O)c3ccccc3C2=O)cc1 | 1.9 | -14.5 | 2.3
12 | O=C1c2ccccc2C(=O)N1CCSc1ccccc1 | -4.3 | -39.8 | .
13 | CN(C)C(=O)C[C@@H]1C[C@H]2c3cc(NC(=O)NC4CCCC4)ccc3O[C@H]2[C@@H](CO)O1 | -2.1 | -3.8 | 0.1
14 | CC1CCc2nc3ccc(S(=O)(=O)N4CCC(C(=O)NC5CCCC5)CC4)cc3c(C(=O)O)c2C1 (stereo not drawn) | 0.6 | -11.2 | 93.4*
15 | COc1cc(NC(=O)[C@@H]2CCCN2S(=O)(=O)c2cccc3cccnc23)cc(OC)c1OC | 6.7 | -14.9 | 20.4
16 | Nc1nc(N)c2sc3nc4c(cc3c2n1)CCC4 | 1.3 | -1.5 | .
17 | Cc1ccc(C(=O)c2sc3nc4c(cc3c2N)CCC4)cc1 | 5.9 | -10.0 | .
18 | O=C(COC(=O)Cc1ccccc1F)NCc1ccc(Cl)cc1 | -0.3 | 8.7 | -0.1
19 | COc1cc(Cl)ccc1OCc1cc(C(=O)N2CCCC(OC)C2)no1 (stereo not drawn) | -1.3 | -15.1 | -0.3
20 | COc1cc(Cl)ccc1OCc1cc(C(=O)N2CCCCCC2)no1 | 3.2 | -2.8 | .

nr | PGC1a acetyl inh | esBAF inh | Statin myotox sup
11 | 2.6 | . | .
12 | -2.0 | 50.0* | -0.8
13 | -6.3 | 1.7 | -8.6
14 | -1.8 | -6.4 | .
15 | -0.1 | -1.3 | 87.1*
16 | 14.4 | 48.3* | -7.4
17 | . | . | .
18 | -2.0 | . | 100.4*
19 | . | 75.1* | 3.7
20 | -1.2 | 44.9* | -2.4

Single records, from the list above. Screens in order: PglD inh	UUG fidelity	E-selectin induc	PGC1a acetyl inh	esBAF inh	Statin myotox sup
COc1cc(Cl)ccc1OCc1cc(C(=O)N2CCCCCC2)no1 across the screens: 3.2	-2.8	.	-1.2	44.9*	-2.4
COc1cc(Cl)ccc1OCc1cc(C(=O)N2CCCC(OC)C2)no1 (stereo not drawn) across the screens: -1.3	-15.1	-0.3	.	75.1*	3.7

(further entries)
nr | compound | PglD inh | UUG fidelity | E-selectin induc
21 | COc1cc(Cl)ccc1OCc1cc(C(=O)N2CCN(C)CC2)no1 | -3.6 | -3.2 | 0.0
22 | CCCOC1CCCN(C(=O)c2cc(COc3ccc(F)c(F)c3)on2)C1 (stereo not drawn) | 3.5 | -12.0 | -0.4
23 | C[C@@H]1CN([C@H](C)CO)C(=O)c2cc(Br)cnc2O[C@H]1CN(C)CC1CCCC1 | -5.1 | 0.2 | 0.2
24 | O=C(C[C@H]1CC[C@@H](NC(=O)C2CCOCC2)[C@H](CO)O1)Nc1ccccc1 | . | . | 0.0
25 | CO[C@@H]1CN(C)C(=O)c2ccc(NS(C)(=O)=O)cc2OC[C@@H](C)N(CCC(F)(F)F)C[C@H]1C | 2.4 | -5.6 | -0.2
26 | CCS(=O)(=O)Nc1ccc2c(c1)C(=O)N(C)C[C@H](OC)[C@@H](C)CN[C@H](C)CO2 | . | . | -0.1
27 | CCn1c(SCC(=O)N(C)Cc2ccc(OC)c(F)c2)nc2cc(S(N)(=O)=O)ccc21 | -6.8 | -12.5 | 42.3*
28 | Cc1ccc(S(=O)(=O)Nc2ccc3c(c2)C(=O)N([C@H](C)CO)C[C@H](C)[C@@H](CN(C)S(=O)(=O)c2c(C)noc2C)OCCCC[C@H](C)O3)cc1 | -2.8 | 13.6 | .
29 | Cc1ccc2c(c1)Sc1ccccc1CC2=O | -6.7 | -9.3 | .
30 | Brc1ccccc1/C=N/Nc1ccccn1 | -1.3 | 1.6 | -0.5

nr | PGC1a acetyl inh | esBAF inh | Statin myotox sup
21 | -0.7 | -3.0 | -4.4
22 | -4.4 | 47.1* | 3.5
23 | 19.9 | -7.8 | 22.2
24 | -3.1 | . | .
25 | 1.5 | 1.0 | -6.4
26 | 4.3 | . | .
27 | -9.4 | 1.4 | 3.5
28 | 3.6 | 5.0 | .
29 | -2.7 | 61.0* | 82.9*
30 | 5.0 | . | .

Four entries already listed, ordered by the number in UUG fidelity, falling.
no. | smiles | UUG fidelity
28 | Cc1ccc(S(=O)(=O)Nc2ccc3c(c2)C(=O)N([C@H](C)CO)C[C@H](C)[C@@H](CN(C)S(=O)(=O)c2c(C)noc2C)OCCCC[C@H](C)O3)cc1 | 13.6
21 | COc1cc(Cl)ccc1OCc1cc(C(=O)N2CCN(C)CC2)no1 | -3.2
25 | CO[C@@H]1CN(C)C(=O)c2ccc(NS(C)(=O)=O)cc2OC[C@@H](C)N(CCC(F)(F)F)C[C@H]1C | -5.6
29 | Cc1ccc2c(c1)Sc1ccccc1CC2=O | -9.3

The results go on:
nr | compound | PglD inh | UUG fidelity | E-selectin induc
31 | Clc1ccc(/C=N/Nc2ccccn2)cc1 | -4.4 | -22.8 | -0.2
32 | Brc1ccc(/C=N/Nc2ccccn2)cc1 | -2.1 | -9.6 | -0.2
33 | CCOc1ccc(/C=N/Nc2ccccn2)cc1 | . | . | 30.9*
34 | COc1ccc(/C=N/Nc2ccccn2)cc1O | . | . | .
35 | FC(F)(F)c1ccccc1/C=N/Nc1ccccn1 | . | . | 3.0
36 | Cc1ccc(/C=N/Nc2ccccn2)s1 | -1.8 | -22.5 | .
37 | C[C@@H]1CN([C@@H](C)CO)C(=O)c2cc(C#Cc3cccc(F)c3)cnc2O[C@@H]1CN(C)C(=O)C1CCOCC1 | . | -13.5 | 0.0
38 | O=C(Nc1cccc(Cl)c1N1CCOCC1)c1ccc([N+](=O)[O-])o1 | -6.3 | -8.9 | .
39 | CC1CCN(c2ccc(NC(=O)c3ccc([N+](=O)[O-])o3)cc2)CC1 | 3.1 | -8.4 | -1.6
40 | CC(C)(C)C(=O)N1CCN(c2ccc(NC(=O)c3ccc([N+](=O)[O-])o3)cc2)CC1 | -1.2 | -7.1 | .

nr | PGC1a acetyl inh | esBAF inh | Statin myotox sup
31 | -5.3 | 43.5* | 4.1
32 | -3.4 | 69.8* | -8.2
33 | . | . | .
34 | 4.3 | 13.9 | -3.1
35 | 0.6 | . | .
36 | 7.6 | 57.5* | -8.7
37 | 3.3 | 10.7 | 48.5
38 | -9.7 | -2.5 | 97.3*
39 | 9.4 | . | 83.4*
40 | . | -27.8 | 133.2*

(list continues)
nr | compound | PglD inh | UUG fidelity | E-selectin induc
41 | O=C(Nc1cccc(Cl)c1N1CCOCC1)c1cc([N+](=O)[O-])ccc1N1CCOCC1 | -6.8 | 6.7 | 0.8
42 | COc1ccc(NC(=O)N(C)C[C@H]2OCc3ccccc3-c3ccccc3C(=O)N([C@@H](C)CO)C[C@H]2C)cc1 | 4.8 | -4.4 | -0.1
43 | Cc1noc(C)c1NC(=O)N[C@H]1CC[C@H](CCNC(=O)C2CC2)O[C@H]1CO | -2.8 | -5.9 | 0.0
44 | O=C(Nc1ccc(NC(=O)c2ccco2)nc1)c1ccccn1 | 2.8 | -38.8 | .
45 | COc1ccccc1C(=O)Nc1ccc(NC(=O)c2ccco2)cn1 | . | . | .
46 | O=C(Nc1ccccn1)c1ccco1 | 3.3 | -24.4 | .
47 | O=C(Nc1ccc(NC(=O)C23CC4CC(CC(C4)C2)C3)cn1)c1ccco1 | 2.6 | -11.0 | .
48 | O=C(Nc1ccc(NC(=O)c2ccccc2Cl)nc1)c1ccncc1 | 3.3 | -8.9 | -0.1
49 | O=C(Nc1ccc(NC(=O)c2ccccc2)nc1)c1ccncc1 | . | . | 4.4
50 | COc1ccccc1S(=O)(=O)N[C@H]1CC[C@H](CCNC(=O)C2CCOCC2)O[C@@H]1CO | 4.0 | . | -1.9
51 | C[C@H]1CN([C@@H](C)CO)C(=O)Cc2cc(NC(=O)Cc3ccccc3)ccc2O[C@@H]1CN(C)Cc1ccc2c(c1)OCO2 | 0.8 | 5.2 | 0.4

nr | PGC1a acetyl inh | esBAF inh | Statin myotox sup
41 | . | -4.5 | -23.3
42 | 1.2 | 0.7 | -8.5
43 | 6.1 | -3.4 | -3.5
44 | 5.6 | -16.5 | 112.9*
45 | 8.9 | 64.2* | -4.5
46 | -9.7 | 24.2 | 1.5
47 | 4.8 | 48.9* | -10.5
48 | -1.9 | -6.6 | -1.1
49 | -9.8 | 42.7* | -8.4
50 | 8.8 | -3.3 | 6.7
51 | -21.8 | 2.9 | 27.4
